What was measured:
[1] = test system: peptide-specific, IFN-γ-producing CD8+ T cells; experiment: Human vaccination study: peptide-specific T cell response; details: for Evidence Immunized?: one line per patient
[2] = test system: refractory metastatic melanoma; experiment: Human vaccination study: clinical outcome; assay type: in vivo; details: one line per patient
From the text: Evaluation of tumor regression is a secondary endpoint in this study. Tumor masses are characterized carefully with bidimensional measurements.
Criteria for a Partial Response (PR): 50% reduction in the sum of the product of the largest perpendicular diameters of the indicator lesions identified prior to therapy.
Criteria for a Complete Response (CR): total disappearance of all evidence of tumor without appearance of new lesions.
Criteria for Progressive Disease (PD): appearance of new lesions; and/or fifty percent increase in the sum of the product of the largest perpendicular diameters of the indicator lesions. This cutoff has been chosen because initial increases in tumor size followed by tumor shrinkage have been observed in the first MAGE-3 peptide immunization experience; and/or reappearance of any tumor.
Criteria for Stable Disease (SD): Failure to meet the criteria for a Partial Response, Complete Response, or Progressive Disease.
Data for clinical responses are also presented.

[3] = test system: metastatic renal cell carcinoma; details: human, in vivo; cited from earlier work

Row | Substance | Evidence Immunized? ([1]; IL-12 dose 0) | Evidence Immunized? ([1]; IL-12 dose 30 ng/kg) | Timing of detection of specific responses ([1]; compared between antigens) | Clinical Outcome ([2]; IL-12 dose 0) | Clinical Outcome ([2]; IL-12 dose 30 ng/kg) | Clinical Outcome ([2]; IL-12 dose 100 ng/kg) | Response rates [3]
1 | AAGIGILTV [MelanA] | Yes | Yes | detected earlier than Mage3-specific responses | PR (50% reduction in the sum of the product of the largest perpendicular diameters of the indicator lesions identified prior to therapy) | PD (appearance of new lesions; and/or fifty percent increase in the sum of the product of the largest perpendicular diameters of the indicator lesions) | PD (appearance of new lesions; and/or fifty percent increase in the sum of the product of the largest perpendicular diameters of the indicator lesions) | 
2 | IL-2: T cell growth factor IL-2 |  |  |  |  |  |  | 15-20%

Source: patent publication US6716422B1, “Vaccine adjuvants for immunotherapy of melanoma” (ARCH Development Corporation, priority 1998, dated 2004)
